This passage reports IC50 results from US20120245137A1 (Zalicus Pharmaceuticals Ltd., priority 2009, published 2012).

Amino acid sequences for entries named in this document (tags omitted).
UniProt O95180, whole entry: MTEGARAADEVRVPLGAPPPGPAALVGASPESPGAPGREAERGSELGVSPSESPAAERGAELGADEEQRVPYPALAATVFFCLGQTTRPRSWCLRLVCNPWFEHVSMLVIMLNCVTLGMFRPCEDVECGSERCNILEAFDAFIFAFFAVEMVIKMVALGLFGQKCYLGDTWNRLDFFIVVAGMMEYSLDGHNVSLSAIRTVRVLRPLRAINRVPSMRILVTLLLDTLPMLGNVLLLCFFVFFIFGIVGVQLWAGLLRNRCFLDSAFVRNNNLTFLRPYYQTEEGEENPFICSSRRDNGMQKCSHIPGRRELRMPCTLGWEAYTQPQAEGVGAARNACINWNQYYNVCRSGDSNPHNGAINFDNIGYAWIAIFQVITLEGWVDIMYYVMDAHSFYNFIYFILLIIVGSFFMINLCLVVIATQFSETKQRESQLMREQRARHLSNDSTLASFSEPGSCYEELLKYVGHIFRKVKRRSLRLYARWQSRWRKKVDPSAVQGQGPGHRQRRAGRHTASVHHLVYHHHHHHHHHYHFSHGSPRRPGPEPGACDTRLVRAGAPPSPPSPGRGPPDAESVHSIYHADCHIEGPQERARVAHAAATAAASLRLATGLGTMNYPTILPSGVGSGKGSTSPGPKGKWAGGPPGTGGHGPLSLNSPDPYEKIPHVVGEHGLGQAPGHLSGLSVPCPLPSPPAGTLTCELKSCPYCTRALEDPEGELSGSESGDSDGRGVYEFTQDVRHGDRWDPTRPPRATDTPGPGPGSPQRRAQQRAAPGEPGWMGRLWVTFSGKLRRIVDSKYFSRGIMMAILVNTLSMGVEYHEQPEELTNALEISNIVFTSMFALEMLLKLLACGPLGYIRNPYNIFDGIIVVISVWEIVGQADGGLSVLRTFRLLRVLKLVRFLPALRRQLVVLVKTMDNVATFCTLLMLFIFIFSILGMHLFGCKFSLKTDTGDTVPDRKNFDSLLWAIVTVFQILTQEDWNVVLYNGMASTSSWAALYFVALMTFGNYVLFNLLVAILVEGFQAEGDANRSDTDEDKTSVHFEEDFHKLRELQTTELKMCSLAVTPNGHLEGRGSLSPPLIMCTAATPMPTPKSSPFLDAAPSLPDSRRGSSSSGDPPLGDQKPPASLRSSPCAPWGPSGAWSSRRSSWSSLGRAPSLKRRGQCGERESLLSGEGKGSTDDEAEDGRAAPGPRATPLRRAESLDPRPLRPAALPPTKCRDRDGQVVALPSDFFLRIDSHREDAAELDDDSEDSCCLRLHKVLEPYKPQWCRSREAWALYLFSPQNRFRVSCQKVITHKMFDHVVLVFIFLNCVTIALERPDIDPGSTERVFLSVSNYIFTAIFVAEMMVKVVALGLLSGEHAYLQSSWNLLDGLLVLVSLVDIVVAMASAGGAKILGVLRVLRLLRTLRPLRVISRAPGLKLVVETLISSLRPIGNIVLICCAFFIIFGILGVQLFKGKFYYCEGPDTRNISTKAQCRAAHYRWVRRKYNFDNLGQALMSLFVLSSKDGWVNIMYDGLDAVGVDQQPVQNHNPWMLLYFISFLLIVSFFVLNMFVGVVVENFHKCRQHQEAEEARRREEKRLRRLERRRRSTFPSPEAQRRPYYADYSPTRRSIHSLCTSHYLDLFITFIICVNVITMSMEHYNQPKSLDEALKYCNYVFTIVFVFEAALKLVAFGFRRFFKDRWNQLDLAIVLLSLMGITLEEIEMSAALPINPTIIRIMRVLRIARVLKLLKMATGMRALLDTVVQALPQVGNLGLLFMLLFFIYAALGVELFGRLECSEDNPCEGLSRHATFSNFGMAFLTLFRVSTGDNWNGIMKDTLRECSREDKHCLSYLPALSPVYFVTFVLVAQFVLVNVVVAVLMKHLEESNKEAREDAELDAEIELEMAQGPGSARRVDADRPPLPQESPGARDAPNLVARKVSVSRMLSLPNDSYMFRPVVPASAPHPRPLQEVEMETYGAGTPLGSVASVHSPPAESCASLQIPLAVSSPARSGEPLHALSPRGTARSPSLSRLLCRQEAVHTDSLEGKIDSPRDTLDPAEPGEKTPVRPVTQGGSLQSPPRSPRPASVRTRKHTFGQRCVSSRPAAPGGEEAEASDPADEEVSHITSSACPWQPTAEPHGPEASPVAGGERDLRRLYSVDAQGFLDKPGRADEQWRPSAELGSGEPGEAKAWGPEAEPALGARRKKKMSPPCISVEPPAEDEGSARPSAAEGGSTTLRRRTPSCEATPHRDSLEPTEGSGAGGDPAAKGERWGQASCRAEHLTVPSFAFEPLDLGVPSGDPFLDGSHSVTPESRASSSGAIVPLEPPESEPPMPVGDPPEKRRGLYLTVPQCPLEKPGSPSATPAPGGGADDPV
UniProt O43497, whole entry: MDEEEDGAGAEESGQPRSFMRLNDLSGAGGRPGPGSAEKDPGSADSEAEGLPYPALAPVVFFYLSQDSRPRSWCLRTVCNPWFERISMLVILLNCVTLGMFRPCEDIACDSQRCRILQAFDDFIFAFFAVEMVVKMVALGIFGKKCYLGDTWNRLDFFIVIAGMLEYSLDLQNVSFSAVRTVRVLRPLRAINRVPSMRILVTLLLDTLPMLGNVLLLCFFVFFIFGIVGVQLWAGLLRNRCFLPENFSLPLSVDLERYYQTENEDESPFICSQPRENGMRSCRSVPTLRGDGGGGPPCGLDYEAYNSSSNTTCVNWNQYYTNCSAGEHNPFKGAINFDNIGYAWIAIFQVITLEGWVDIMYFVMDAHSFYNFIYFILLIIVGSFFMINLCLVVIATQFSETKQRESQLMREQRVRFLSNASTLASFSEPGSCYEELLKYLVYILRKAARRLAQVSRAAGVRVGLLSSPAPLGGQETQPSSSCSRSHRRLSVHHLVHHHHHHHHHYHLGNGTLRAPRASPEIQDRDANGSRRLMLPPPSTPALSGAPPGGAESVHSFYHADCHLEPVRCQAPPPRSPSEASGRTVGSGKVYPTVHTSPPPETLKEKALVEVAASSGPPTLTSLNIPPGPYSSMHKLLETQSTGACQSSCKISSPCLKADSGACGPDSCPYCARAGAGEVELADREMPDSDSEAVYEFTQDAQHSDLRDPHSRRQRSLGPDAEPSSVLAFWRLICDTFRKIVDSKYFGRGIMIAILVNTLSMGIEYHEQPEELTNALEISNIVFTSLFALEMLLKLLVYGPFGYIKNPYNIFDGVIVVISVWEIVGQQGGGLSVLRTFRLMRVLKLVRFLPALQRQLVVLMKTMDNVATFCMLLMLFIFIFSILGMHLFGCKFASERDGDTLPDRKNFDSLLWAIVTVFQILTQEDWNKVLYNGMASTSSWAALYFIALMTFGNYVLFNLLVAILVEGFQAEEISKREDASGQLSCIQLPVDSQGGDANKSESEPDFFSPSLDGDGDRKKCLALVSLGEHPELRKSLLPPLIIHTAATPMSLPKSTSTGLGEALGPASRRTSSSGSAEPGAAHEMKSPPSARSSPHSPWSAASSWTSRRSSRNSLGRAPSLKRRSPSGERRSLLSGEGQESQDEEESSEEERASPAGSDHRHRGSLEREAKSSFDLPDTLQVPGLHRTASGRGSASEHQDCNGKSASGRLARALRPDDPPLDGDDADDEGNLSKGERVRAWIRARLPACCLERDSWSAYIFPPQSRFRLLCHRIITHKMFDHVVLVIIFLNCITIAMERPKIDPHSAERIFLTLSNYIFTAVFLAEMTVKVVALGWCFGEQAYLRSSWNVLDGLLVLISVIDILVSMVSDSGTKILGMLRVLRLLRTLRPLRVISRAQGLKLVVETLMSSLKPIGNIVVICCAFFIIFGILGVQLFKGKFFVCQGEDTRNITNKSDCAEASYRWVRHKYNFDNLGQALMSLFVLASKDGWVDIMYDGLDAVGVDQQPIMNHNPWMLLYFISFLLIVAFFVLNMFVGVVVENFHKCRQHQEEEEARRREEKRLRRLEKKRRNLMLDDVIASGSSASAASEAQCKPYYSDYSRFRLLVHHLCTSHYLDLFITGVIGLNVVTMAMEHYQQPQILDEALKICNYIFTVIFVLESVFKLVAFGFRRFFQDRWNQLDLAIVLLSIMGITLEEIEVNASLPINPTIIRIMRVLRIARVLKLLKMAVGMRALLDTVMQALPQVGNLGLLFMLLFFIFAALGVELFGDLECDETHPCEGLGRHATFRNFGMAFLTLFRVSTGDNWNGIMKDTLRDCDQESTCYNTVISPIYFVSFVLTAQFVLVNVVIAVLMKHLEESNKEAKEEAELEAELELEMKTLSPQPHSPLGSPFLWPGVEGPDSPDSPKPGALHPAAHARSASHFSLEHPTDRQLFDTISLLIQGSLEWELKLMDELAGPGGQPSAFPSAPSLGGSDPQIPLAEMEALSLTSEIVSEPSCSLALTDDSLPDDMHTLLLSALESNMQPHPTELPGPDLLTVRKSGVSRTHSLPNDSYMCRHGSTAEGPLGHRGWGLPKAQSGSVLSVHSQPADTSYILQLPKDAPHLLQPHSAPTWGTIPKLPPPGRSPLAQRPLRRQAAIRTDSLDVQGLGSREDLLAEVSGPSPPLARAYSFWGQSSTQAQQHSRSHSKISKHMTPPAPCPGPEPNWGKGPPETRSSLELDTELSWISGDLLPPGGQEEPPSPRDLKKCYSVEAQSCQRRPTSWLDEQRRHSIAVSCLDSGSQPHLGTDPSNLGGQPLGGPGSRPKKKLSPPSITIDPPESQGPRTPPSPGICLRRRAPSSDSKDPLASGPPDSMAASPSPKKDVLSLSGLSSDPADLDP

Experiment [1] deals with human α1H T-type channels (Homo sapiens, UniProt O95180). Nature of the experiment: T-type calcium channel block, whole cell patch clamp, α1H. In kind it is cell-based. Conditions: read-out: α1H; HEK cells stably expressing human α1H; mainly non-inactivated protocol; values above 10,000 nM represented as 10000.
Experiment [2] concerns the target human α1G T-type channels (Homo sapiens, UniProt O43497). Description: T-type calcium channel block, whole cell patch clamp, α1G. Conditions: read-out: α1G; HEK cells stably expressing human α1G; mainly non-inactivated protocol; values above 10,000 nM represented as 10000. Format: cell-based. (In general: Patch clamp records ionic current or voltage across a cell membrane.)

A value given as a limit tells only on which side of the number the result lay.

Regarding `CC(C)(CNC(=O)c1ccc(Oc2ccc(Cl)cc2)cc1)S(=O)(=O)c1cccc(C(F)(F)F)c1`, the figures for the IC50 in experiment [1] and in experiment [2] were 1760 nM and 540 nM, respectively.

Take `CC(C)(C(=O)Nc1ccc(Oc2ccc(F)c(C(F)(F)F)c2)nc1)S(=O)(=O)c1cccc(C(F)(F)F)c1`: the results for the IC50 in experiment [1] and in experiment [2] were 1360 nM and 370 nM, respectively.

As to `Cc1c(OC(C)C)ncnc1C(=O)NCCC(C)(C)S(=O)(=O)c1cccc(C(F)(F)F)c1`, the IC50 was 3080 nM in experiment [1] and 620 nM in experiment [2].

Turning to `CC(C)(CNS(=O)(=O)c1ccc(N2CCCC2=O)cc1)S(=O)(=O)c1cccc(C(F)(F)F)c1`, the IC50 in experiment [1] was more than 10000 nM; in experiment [2] it was 900 nM.
